These are literature values, as cited in patent US20060153844A1, “Methods to trigger, maintain and manipulate immune responses by targeted administration of biological response modifiers into lymphoid organs” (priority 2004, published 2006).

The conditions of the data set: 270 patients; cited from earlier work.

As to “IL-2: co-stimulatory cytokine, the major T cell growth hormone”, the Infections is given as 15 % of patients, the “adult respiratory distress syndrome” value is recorded as 4 % of patients, the “died from treatment-related toxicity” value is recorded as 2.2 % of the 270 patients and the hypotension is recorded as 64 % of patients. Besides, the life threatening sepsis was 3 % of the patients; the “respiratory failure, coma” value is 1 % of patients; the supraventricular tachycardia is 17 % of patients.
